## Ab-14 light chain CDR variants: yeast mating affinities

The target is the same throughout: PDVDLGDISGINAS, from the HR2 region of SARS-CoV-2 spike.

Each scFv is VH, a (GGGGS)3 linker, VL, as in the parent Ab-14, and differs from it in the CDRs of the light chain only.
VH: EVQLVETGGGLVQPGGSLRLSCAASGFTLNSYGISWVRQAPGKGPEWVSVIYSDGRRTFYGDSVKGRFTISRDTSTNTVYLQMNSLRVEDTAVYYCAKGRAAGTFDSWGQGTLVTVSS
VL: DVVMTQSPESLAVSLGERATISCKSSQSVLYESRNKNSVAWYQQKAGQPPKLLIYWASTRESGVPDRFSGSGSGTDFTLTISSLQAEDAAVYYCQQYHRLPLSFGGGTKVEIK

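The starting antibody came from a phage panning campaign against this peptide. Designed CDR sequences, proposed from the first random library and measured here. Several design methods are mixed in this list. Affinity was read by AlphaSeq, a pooled yeast mating assay with surface-displayed partners. The frequency of each diploid, read from paired DNA barcodes, reflects how well the two displayed proteins bind. A regression on co-assayed BCL2-family reference pairs converts the normalised counts of each replicate to an apparent Kd. The assay was run in six technical replicates.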

Each variant is given by its three light chain CDRs, as the data file delimits them; those of the parent are KSSQSVLYESRNKNSVA, WASTRES, QQYHRLPLS.
Values are log10 of the apparent Kd in nM; lower means stronger binding.
Replicates are averaged; those with no signal do not enter the mean.
A pair that was not seen in any replicate is written "nd"; this usually means weak binding, but a binder can also be missed.

CDR-L1 | CDR-L2 | CDR-L3 | mean log10 Kd (nM) | seen in | control signals
KMSQSVLYEDLNKNSVA | GASTRES | QQYHRLPLS | nd | 0/6 | 0/18
KIGMTLNQLMQKKNNVA | DLVEREN | QQYHRLPLS | 0.71 | 6/6 | 2/18
KFSQSVLYESRNKNNVA | EASTRES | QQYHRLPLS | 0.01 | 6/6 | 0/18
KLQASQEYWSRNKNSVA | QASTRES | QQYHRLPLS | -0.32 | 6/6 | 0/18
KFSQKVLYEERTKNSVA | NASTRES | QQYHRLPLS | nd | 0/6 | 0/18
KISQMQRVGSTHHNSIA | EEATRAK | QQYHRLPLF | 2.47 | 6/6 | 4/18
KVSFSYLYESRNKNSVA | EASTRES | QQYHRLPLS | -0.27 | 6/6 | 1/18
KFEWSWLYESRNCNSVA | NASTRES | QQYWRLPLS | 0.34 | 6/6 | 2/18
TVTQMAMTGMMSKRSVA | NAETRES | QQYHRLPLI | 2.03 | 6/6 | 0/18
KLQQSVQYESRVKNAVA | QASQRES | QQYHRLPLS | 0.19 | 6/6 | 0/18
KSSISGLYESGNKNSVA | EASTRES | QQYHRLPLS | 0.04 | 6/6 | 2/18
KVSFSYLGESRNKNSVA | EASTRES | QQYHRLPLS | 0.38 | 6/6 | 0/18
GDFFQMDGPYEEKENVA | NGNIREP | QQYQRLPLT | 0.23 | 6/6 | 1/18
TLVDWIQGGTWAKKNVA | DEQTRVN | QQYYRLPLS | 0.51 | 6/6 | 0/18
KLSQSVLYESRNKWSVA | NASTRES | QQYHRLPLS | -0.12 | 6/6 | 2/18
KISYMGEYFSTQHSAIA | QASTREQ | QQYHRLPLS | 0.27 | 6/6 | 0/18
KFSQKVLYEHRVKNSVA | NASTRES | QQYHRLPLS | 0.43 | 6/6 | 1/18
SISGFMKSLSAHTNSVA | DMTNRES | QQYDRLPLS | 1.19 | 6/6 | 0/18
MLSDLVKSGSRNTNSVA | DNSTRGS | QQYDRLPLS | 2.35 | 5/6 | 0/18
KLSGLMASSKFAKDNVA | ENNTRED | QQYDRLPLS | 2.15 | 1/6 | 2/18
MISMMHASQYNEESSIA | DAEALNS | QQYHELPLS | 1.53 | 1/6 | 1/18
TMNVELAYGVPEMGNVA | AGSQKLA | QQYYRLPLS | 0.41 | 6/6 | 0/18
KLQQSFLYESRNKNSVA | DASQRES | QQYHRLPLS | -0.54 | 6/6 | 1/18
KFSQSVLYESRMKNSVA | NASTRES | QQYHQLPLS | 0.14 | 6/6 | 2/18
KLSMITGHMSMSKNNVA | EMVTREN | QQYNRLPLS | 0.31 | 6/6 | 1/18
KLMQSELYESRNKNSVA | EASTRES | QQYHRLPLS | -0.19 | 6/6 | 0/18
TLYGLSNSMSINKNSVA | EMTTRYD | QQYDRLPLE | 2.24 | 5/6 | 0/18
ENSQSVLYDSSNKNSVA | WASTRES | QQYHRLPLS | 0.83 | 6/6 | 1/18
KSSQSELYESRNKNSVA | SASTRES | QQYHRLPLS | 0.37 | 6/6 | 0/18
KSSQSWLYESRNKNSVA | GASTRES | QQYHRLWLS | 0.87 | 6/6 | 1/18
KLMQSMPYESRNANNVA | YASTREE | QQYHRLPLS | -0.06 | 6/6 | 0/18
MLGDTVMQGSYSRNSVA | QESTRAE | QQYHHLPLS | 0.36 | 6/6 | 0/18
KMQQSEGMESRNVNSVA | HASQRLD | QQYHRLPLS | -0.06 | 6/6 | 0/18
KQSQSQLYESRNKNSVA | QASTRES | QQYHRLPLS | 0.16 | 6/6 | 0/18
KIGMTLNQLYEKQNNVA | DLVMREN | QQYHRLPLS | 0.33 | 6/6 | 0/18
QSSQSFLYESRNKNSVA | GASTRES | QQYHRLTLS | -0.51 | 6/6 | 0/18
NLMGQGADSIKHANSIA | NVDLVDM | QQYAHLPLS | 2.44 | 3/6 | 0/18
KLALVTGTEKVIGNNVA | EMETRER | QQYNRLPLA | 0.51 | 6/6 | 1/18
YMSGQEPGDWNQQEAVA | EVTYKEH | QQYYRLPLS | 1.85 | 5/6 | 0/18
KSSQSYLYESMNKNSVA | NGSTRES | QQYHRLPLS | 0.19 | 6/6 | 0/18
KLMQMMPYESRNANNVA | NASTREE | QQYHRLPLS | 0.87 | 6/6 | 0/18
AVSIQHMENTAIWNAIA | DTSLRAH | QQYYHLPLC | 1.33 | 6/6 | 0/18
KSSQSVEYESRNKNSVA | QASTRGS | QQYHVLPLM | 0.57 | 6/6 | 2/18
KSSISFLYESRNKNSVA | AASTRES | QQYHRLPLS | 0.19 | 6/6 | 1/18
TLGDVTRMESNKKNSIA | DMSNRAD | QQYHRLPLE | 0.17 | 6/6 | 2/18
KLTATMRFEQKISNNIA | EVTQRSK | QQYARLPLS | 1.75 | 5/6 | 1/18
KVYQSYLYESRNKNSVA | NASTRES | QQYHRLPLS | -0.31 | 6/6 | 1/18
KLYNNVGTMSHNKQSIA | DMERRED | QQYHRLPLS | 0.20 | 6/6 | 1/18
KLSQSVLYESRMKNNVA | NASTRES | QQYHRLPLS | -0.26 | 6/6 | 0/18
HLNEQLVMDSKNQNHVA | STETRES | QQYFRLPFT | 0.15 | 6/6 | 1/18
QIFFNDFEYGIESQNIA | QGSMREV | QQYARLPLV | 0.23 | 6/6 | 1/18
KINGVLINFGEDWNAIA | EENLSNL | QQYFHLPLS | nd | 0/6 | 0/18
KLSQSVEVLDRNKNSVA | NASTREA | QQYHRLPLS | 0.64 | 6/6 | 1/18
KSSQSKLYESRNKNFVA | NASYRES | QQYHRLPLS | 1.03 | 6/6 | 2/18
KSSPSELEESRNKNSVA | GASTREL | QQYERLPFS | 0.13 | 6/6 | 0/18
KMSQSHLYESRNKNNVA | DASTRES | QQYHRLPLS | -0.41 | 6/6 | 1/18
KSSQSVLYESRNKNSVA | WADTRED | QQYHHLPLS | 0.95 | 6/6 | 1/18
NLSQSDLYESRNKNSVA | GGNTRES | QQYHRLPLS | -0.74 | 6/6 | 0/18
KSSQSVLYESRNKNSVA | WASTRES | QQYHRLPLI | 2.48 | 4/6 | 1/18
SIQNLGMVNSVWKNSIA | DVNILED | QQYWRLPLL | 0.12 | 6/6 | 1/18
KMSQSVIFNSRNKNSVA | WASTRES | QQYHRLPLS | 1.12 | 6/6 | 1/18
HIELGTWGVQKFDSSVA | HASQRQE | QQYAQLPLT | nd | 0/6 | 0/18
KSSQSHVYESRNKNSVA | WASTRES | QYYHRLPLS | nd | 0/6 | 0/18
KLSQSQCYESRNKNNVA | QASDRMS | QQYHRLPLS | 0.05 | 6/6 | 1/18
YLSQSVLYEDRNKNSVA | NASTRES | QQYHRLPLS | 0.32 | 11/12 | 0/36
NLTTGYEQGALNTDNVA | HGNMTEA | QQYYRLPLS | 0.45 | 6/6 | 1/18
KIEWFSMDNRLTISAIA | EASTIYQ | QQYGHLPLS | nd | 0/6 | 0/18
KLSQSMLYESRNKNSVA | QASTREE | GQYHRLPLT | 0.00 | 6/6 | 2/18
QINLQGLSAALNNRAVA | AKNLRVD | QQYNRLPLS | 0.86 | 6/6 | 1/18
KLSQSELYESRNKNNVA | HASTRES | QQYHRLPLS | -0.12 | 6/6 | 0/18
KSLQSVLYESLNKNNVA | WAYTREK | QQYVRLPLS | nd | 0/6 | 0/18
MLSQMWALGMKVSNSVA | QASMRFE | QQYERLPLI | 1.74 | 6/6 | 0/18
KAQQSWGYESRNKWSVA | NASTREK | QQYHRLPLS | 0.14 | 6/6 | 1/18
KLSQSVDYESRNKNSVA | NASTREE | QQYHRLPLS | -0.30 | 6/6 | 0/18

Extract of 6 entries:

{"CDR-L1": "KSSPSELEESRNKNSVA", "CDR-L2": "GASTREL", "CDR-L3": "QQYERLPFS", "mean log10 Kd (nM)": "0.13", "seen in": "6/6", "control signals": "0/18"}
{"CDR-L1": "KLQASQEYWSRNKNSVA", "CDR-L2": "QASTRES", "CDR-L3": "QQYHRLPLS", "mean log10 Kd (nM)": "-0.32", "seen in": "6/6", "control signals": "0/18"}
{"CDR-L1": "KSSQSYLYESMNKNSVA", "CDR-L2": "NGSTRES", "CDR-L3": "QQYHRLPLS", "mean log10 Kd (nM)": "0.19", "seen in": "6/6", "control signals": "0/18"}
{"CDR-L1": "SISGFMKSLSAHTNSVA", "CDR-L2": "DMTNRES", "CDR-L3": "QQYDRLPLS", "mean log10 Kd (nM)": "1.19", "seen in": "6/6", "control signals": "0/18"}
{"CDR-L1": "KQSQSQLYESRNKNSVA", "CDR-L2": "QASTRES", "CDR-L3": "QQYHRLPLS", "mean log10 Kd (nM)": "0.16", "seen in": "6/6", "control signals": "0/18"}
{"CDR-L1": "MISMMHASQYNEESSIA", "CDR-L2": "DAEALNS", "CDR-L3": "QQYHELPLS", "mean log10 Kd (nM)": "1.53", "seen in": "1/6", "control signals": "1/18"}

The authors averaged sequences with at least three values out of six and counted those with two or fewer as poor binders.
A sequence measured in both rounds can read differently, since the two assays cover different ranges.
Empty control strains, which show no peptide, gave a signal in 4% of pairings with all light chain designs; the median was 2.64 and 95% of these signals were weaker than 1.59. No background was subtracted. Also given: how often the same scFv was detected with the empty control strains.
A sequence that the file lists under several names has all its replicates pooled.

Source: Li et al. 2023 (doi:10.1038/s41467-023-39022-2), MIT Lincoln Laboratory and A-Alpha Bio; data file from the FLAb repository.